Experimental data: PubChem BioAssay (Tox21)
Several values for one entry are separate records, joined by “and”; a condition that tells them apart may be missing. Equal values may be shown once. Only a part is listed here, and it is no random draw. Results filed as inconclusive are left out. Activity calls are given as the source filed them. Unless noted, calls come from the whole dose curve; as a rule, active = well fitted curve in the direction sought with a large enough effect in the repeat runs; inconclusive = weak or mixed curves; inactive = no such curve, though single readings can be large; an effect the other way counts as inactive or inconclusive.

Chains of the proteins cited; added tags and fusions are not shown.
UniProt P03372, whole entry: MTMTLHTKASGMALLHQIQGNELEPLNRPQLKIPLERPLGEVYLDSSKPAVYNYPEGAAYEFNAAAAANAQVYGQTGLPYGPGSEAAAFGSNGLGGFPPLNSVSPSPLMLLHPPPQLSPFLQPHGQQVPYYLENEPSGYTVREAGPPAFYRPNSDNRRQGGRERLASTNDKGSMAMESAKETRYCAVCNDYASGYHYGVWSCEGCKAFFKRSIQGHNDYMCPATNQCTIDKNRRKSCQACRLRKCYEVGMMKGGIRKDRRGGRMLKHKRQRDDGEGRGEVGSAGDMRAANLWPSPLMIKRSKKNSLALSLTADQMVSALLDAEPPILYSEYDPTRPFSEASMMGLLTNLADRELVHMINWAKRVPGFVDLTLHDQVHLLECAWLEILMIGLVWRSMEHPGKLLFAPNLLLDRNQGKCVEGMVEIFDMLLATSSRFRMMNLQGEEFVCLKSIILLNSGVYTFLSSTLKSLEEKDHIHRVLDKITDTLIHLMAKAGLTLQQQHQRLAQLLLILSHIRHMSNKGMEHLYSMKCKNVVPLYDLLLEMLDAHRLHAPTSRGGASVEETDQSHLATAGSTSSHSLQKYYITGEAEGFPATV
UniProt P10275, whole entry: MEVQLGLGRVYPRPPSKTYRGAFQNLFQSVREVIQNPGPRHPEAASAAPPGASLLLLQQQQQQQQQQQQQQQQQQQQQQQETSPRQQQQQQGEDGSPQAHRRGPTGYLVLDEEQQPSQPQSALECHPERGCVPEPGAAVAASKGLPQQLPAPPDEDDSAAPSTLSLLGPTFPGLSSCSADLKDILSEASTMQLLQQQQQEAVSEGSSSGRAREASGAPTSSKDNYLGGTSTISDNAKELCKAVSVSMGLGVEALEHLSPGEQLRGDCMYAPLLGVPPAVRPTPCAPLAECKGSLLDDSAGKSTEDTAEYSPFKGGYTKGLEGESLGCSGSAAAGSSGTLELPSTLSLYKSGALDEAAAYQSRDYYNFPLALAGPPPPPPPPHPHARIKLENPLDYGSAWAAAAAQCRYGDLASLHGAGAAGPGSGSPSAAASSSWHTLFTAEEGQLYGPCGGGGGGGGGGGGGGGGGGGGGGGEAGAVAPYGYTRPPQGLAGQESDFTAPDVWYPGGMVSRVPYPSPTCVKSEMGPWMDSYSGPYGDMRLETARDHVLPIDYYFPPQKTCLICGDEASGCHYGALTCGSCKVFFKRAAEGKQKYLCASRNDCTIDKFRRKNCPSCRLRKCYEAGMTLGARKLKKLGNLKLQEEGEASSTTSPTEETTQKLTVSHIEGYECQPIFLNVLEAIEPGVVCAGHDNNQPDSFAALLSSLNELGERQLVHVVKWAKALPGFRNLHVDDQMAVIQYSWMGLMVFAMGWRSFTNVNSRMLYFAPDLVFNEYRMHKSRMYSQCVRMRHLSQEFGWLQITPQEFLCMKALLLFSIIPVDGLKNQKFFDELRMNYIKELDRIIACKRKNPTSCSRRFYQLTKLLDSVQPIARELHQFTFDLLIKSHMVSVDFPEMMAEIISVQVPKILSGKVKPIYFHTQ

How the values were obtained:
[1] = qHTS assay to identify small molecule antagonists of the androgen receptor (AR) signaling pathway using the MDA cell line - cell viability counter screen (AID 743041; note: nearly all actives have a fitted effect of over 45% in size); details: MDA-kb2 viability, CellTiter-Fluor, 16 h, cells co-treated with R1881 androgen agonist
Procedure, shortened: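 MDA-kb2 AR-luc human breast carcinoma cells (MMTV-luciferase, AR/GR responsive) were treated with compounds plus R1881 agonist for 16 h at 37 °C. Viability was read as CellTiter-Fluor fluorescence in the same wells as the reporter assay.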

[2] = qHTS assay to identify small molecule antagonists of the thyroid receptor (TR) signaling pathway (AID 743065); details: GH3.TRE-Luc, T3-stimulated luciferase inhibition, 23.5 h; series mostly up to 70.3 µM; note: nearly all actives have a fitted effect of over 55% in size; note: potency is the fitted concentration of half-maximal effect
Procedure, shortened: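 GH3.TRE-Luc rat pituitary cells carrying two TR response elements driving luciferase were plated for 4 h, given compound plus 1 nM T3 (final), and incubated 23.5 h at 37 C. ONE-Glo luminescence measured reporter inhibition; CellTiter-Fluor fluorescence tracked cytotoxicity.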

[3] = tested on: thyroid hormone receptor (rat, GH3 cells); experiment: qHTS assay to identify small molecule agonists of the thyroid receptor (TR) signaling pathway (AID 743066; calls by dose curve); details: GH3.TRE-Luc cells, TR agonist luciferase, 24 h
[4] = molecular target: Estrogen receptor (Homo sapiens) (UniProt P03372); experiment: qHTS assay to identify small molecule antagonists of the estrogen receptor alpha (ER-alpha) signaling pathway (AID 743069; active = well fitted curve in the direction sought with a large enough effect in the signal ratio in the repeat runs, not every such curve was filed as active; the % refers to the signal ratio); details: HEK293 ER-alpha-UAS-bla, beta-lactamase ratio, antagonist mode
Procedure, shortened: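 HEK293 cells stably carrying an ER-alpha-UAS-bla beta-lactamase reporter were pre-cultured overnight in 2% charcoal-stripped FBS medium. Test compounds in DMSO were added together with 17beta-estradiol for 18 hr at 37C. Read-out was fluorescence after 2 hr with LiveBLAzer B/G FRET substrate at room temperature.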

[5] = qHTS assay to identify small molecule antagonists of the estrogen receptor alpha (ER-alpha) signaling pathway - cell viability counter screen (AID 743074; calls by dose curve; note: nearly all actives have a fitted effect of over 45% in size); details: ERalpha-bla HEK293 viability, CellTiter-Glo luminescence, 18 h
[6] = molecular target: Estrogen receptor (Homo sapiens) (UniProt P03372); experiment: qHTS assay to identify small molecule agonists of the estrogen receptor alpha (ER-alpha) signaling pathway (AID 743075; calls by dose curve); details: HEK293 ER-alpha-UAS-bla, beta-lactamase FRET ratio, 18 h
[7] = qHTS assay to identify small molecule antagonists of the thyroid receptor (TR) signaling pathway - cell viability counter screen (AID 743064); details: GH3.TRE-Luc viability, CellTiter-Fluor, 24 h; series mostly up to 70.3 µM; note: nearly all actives have a fitted effect of over 50% in size; note: potency is the fitted concentration of half-maximal effect
Procedure, shortened: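 Viability of T3-stimulated (1 nM final) GH3.TRE-Luc cells is measured by CellTiter-Fluor fluorescence after 23.5 h compound exposure at 37 °C plus 30 min reagent incubation.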

[8] = molecular target: Androgen receptor (Homo sapiens) (UniProt P10275); experiment: qHTS assay to identify small molecule agonists of the androgen receptor (AR) signaling pathway (AID 743036; active = well fitted activation curve with a large enough effect in the signal ratio in the repeat runs, with a control signal flat, not every such curve was filed as active; the % refers to the signal ratio); details: HEK293 AR-UAS-bla GripTite, beta-lactamase FRET ratio, 16 h; at 62.4 µM (top of the series) unless noted
[9] = molecular target: Androgen receptor (Homo sapiens) (UniProt P10275); experiment: qHTS assay to identify small molecule agonists of the androgen receptor (AR) signaling pathway using the MDA cell line (AID 743040; note: nearly all actives have a fitted effect of over 20% in size); details: MDA-kb2 AR-luc cells, MMTV luciferase, 16 h, stronger effect = higher value; at 70.3 µM (top of the series) unless noted
[10] = molecular target: Androgen receptor (Homo sapiens) (UniProt P10275); experiment: qHTS assay to identify small molecule antagonists of the androgen receptor (AR) signaling pathway using the MDA cell line (AID 743042; note: nearly all actives have a fitted effect of over 55% in size); details: MDA-kb2 AR-luc, MMTV luciferase, R1881 antagonist, 16 h; at 70.3 µM (top of the series) unless noted
% is set by controls: 0 for no effect and ±100 for the full control effect.

For `CC(C)OP(C)(=O)OC(C)C`, the viability change, negative = cytotoxic ([1]; at 70.3 µM (top of the series)) was inactive: 5.2% and inactive: 2.5%, the Potency [2] was “inactive” and the activation ([3]; at 83.9 µM (top of the series)) was inactive: 4.18% and inactive: -0.119%. For the same compound, the activity, negative = inhibition ([4]; at 69.4 µM (top of the series)) was inactive: 11.7% and inactive: -58.6%, the activity, negative = cytotoxicity ([5]; at 69.4 µM (top of the series)) was inactive: 5.35% and inactive: 15.4% and the activation ([6]; at 70.1 µM (top of the series)) was inactive: 1.91% and inactive: -0.729%.
In the case of `[NH4+].[O-][Cl+3]([O-])([O-])[O-]`, the viability change, negative = cytotoxic ([1]; at 70.3 µM (top of the series)) is reported as inactive: 19.7%, the viability change, negative = cytotoxic ([1]; at 95 µM (top of the series)) is reported as inactive: 0.943% and the Potency [7] is reported as “inactive”. The activity, negative = cytotoxicity ([5]; at 69.4 µM (top of the series)) was inactive: -28.9% and the activity, negative = cytotoxicity ([5]; at 79.1 µM (top of the series)) was inactive: 20.7%.
For `CCN(CC)CCCl`, the activation [8] was inactive: -3.69% [at 79.1 µM], the activity change [9] was inactive: -0.0096% [at 95 µM] and the viability change, negative = cytotoxic ([1]; at 95 µM (top of the series)) was inactive: 4.43%. The activity change, negative = inhibition [10] was inactive: -8.15% [at 95 µM], the Potency [7] was active: 62 µM and the Potency [2] was active: 62 µM. The activation ([3]; at 95.2 µM (top of the series)) was inactive: -7.62%, the activity, negative = inhibition ([4]; at 79.1 µM (top of the series)) was inactive: -6.2% and the activation ([6]; at 79.1 µM (top of the series)) was inactive: 0.227%.
With `CC(C)OP(=O)(F)OC(C)C` the viability change, negative = cytotoxic ([1]; at 70.3 µM (top of the series)) was inactive: -2.27%, the Potency [2] was “inactive” and the activation ([3]; at 83.9 µM (top of the series)) was inactive: -0.68%. The activity, negative = inhibition ([4]; at 69.4 µM (top of the series)) was inactive: -2.73%, the activity, negative = cytotoxicity ([5]; at 69.4 µM (top of the series)) was inactive: -1.74% and the activation ([6]; at 70.1 µM (top of the series)) was inactive: -2.24%.
In the case of `Cc1ccc([N+](=O)[O-])c([N+](=O)[O-])c1`, the viability change, negative = cytotoxic ([1]; at 70.3 µM (top of the series)) is reported as inactive: -0.36%, the activation ([3]; at 83.9 µM (top of the series)) is reported as inactive: -5.1% and the activation ([3]; at 95.2 µM (top of the series)) is reported as inactive: -8.8%. For the same compound, the activity, negative = inhibition ([4]; at 69.4 µM (top of the series)) was inactive: 5.96%, the activity, negative = inhibition ([4]; at 79.1 µM (top of the series)) was inactive: -4.6% and the activity, negative = cytotoxicity ([5]; at 69.4 µM (top of the series)) was inactive: 5.28%. For the same compound, the activity, negative = cytotoxicity ([5]; at 79.1 µM (top of the series)) was inactive: -12.6%, the activation ([6]; at 70.1 µM (top of the series)) was inactive: 7.37% and the activation ([6]; at 79.1 µM (top of the series)) was inactive: 4.35%.
With `CN(C)CCS` the activation [8] was inactive: -3.88%, the activity change [9] was inactive: 1.15% and the Potency [7] was “inactive”. For the same compound, the Potency [2] was “inactive”, the activation ([3]; at 83.9 µM (top of the series)) was inactive: 1.47% and the activity, negative = cytotoxicity ([5]; at 69.4 µM (top of the series)) was inactive: 8.3%.
With `CCOP(=O)(CC)OCC` the viability change, negative = cytotoxic ([1]; at 70.3 µM (top of the series)) was inactive: 0.716%, the Potency [7] was “inactive” and the Potency [2] was “inactive”. For the same compound, the activation ([3]; at 83.9 µM (top of the series)) was inactive: 0.152% and the activity, negative = cytotoxicity ([5]; at 69.4 µM (top of the series)) was inactive: 10.9%.
For `CP(=O)(O)OCCC[Si](O)(O)O`, the viability change, negative = cytotoxic ([1]; at 70.3 µM (top of the series)) was inactive: 1.15%, the Potency [7] was “inactive” and the Potency [2] was “inactive”. The activation ([3]; at 83.9 µM (top of the series)) was inactive: 0.246%, the activity, negative = inhibition ([4]; at 69.4 µM (top of the series)) was inactive: 4.61% and the activity, negative = cytotoxicity ([5]; at 69.4 µM (top of the series)) was inactive: 23.4%. The activation ([6]; at 70.1 µM (top of the series)) was inactive: 0.669%.
With `COc1ccc([N+](=O)[O-])cc1[N+](=O)[O-]` the viability change, negative = cytotoxic ([1]; at 70.3 µM (top of the series)) was inactive: 0.342%, the Potency [7] was “inactive” and the activation ([3]; at 83.9 µM (top of the series)) was inactive: -1.66%. For the same compound, the activity, negative = inhibition ([4]; at 69.4 µM (top of the series)) was inactive: -18.3%, the activity, negative = cytotoxicity ([5]; at 69.4 µM (top of the series)) was inactive: -2.7% and the activation ([6]; at 70.1 µM (top of the series)) was inactive: -4.5%.
With `CC(C)N(CCCl)C(C)C` the viability change, negative = cytotoxic ([1]; at 70.3 µM (top of the series)) was inactive: 10.8%, the Potency [7] was “inactive” and the Potency [2] was “inactive”. The activation ([3]; at 83.9 µM (top of the series)) was inactive: 0.884%, the activity, negative = inhibition ([4]; at 69.4 µM (top of the series)) was inactive: -24.6% and the activity, negative = cytotoxicity ([5]; at 69.4 µM (top of the series)) was inactive: 13.1%. The activation ([6]; at 70.1 µM (top of the series)) was inactive: 2.91%.
In the case of `O=[N+]([O-])OCC(CO[N+](=O)[O-])(CO[N+](=O)[O-])CO[N+](=O)[O-]`, the activation [8] is reported as inactive: 8.68% and inactive: 0.29%, the activity change [9] is reported as inactive: -3.6% and inactive: 0.609% and the viability change, negative = cytotoxic ([1]; at 70.3 µM (top of the series)) is reported as inactive: -14.5% and inactive: 1.53%. For the same compound, the activity change, negative = inhibition [10] was inactive: -1.78% and inactive: 7.31%, the Potency [7] was “inactive” and the Potency [2] was “inactive”. The activation ([3]; at 83.9 µM (top of the series)) was inactive: 0.12% and inactive: 0.175%, the activity, negative = inhibition ([4]; at 69.4 µM (top of the series)) was inactive: -21.7% and inactive: -8.13% and the activity, negative = cytotoxicity ([5]; at 69.4 µM (top of the series)) was inactive: 12.7% and inactive: 28.6%. The activation ([6]; at 70.1 µM (top of the series)) was inactive: 4.15% and inactive: 6.09%.
